Assay results taken from PubChem BioAssay AID743238 (Broad Institute, 2013).
This is a selection; strong and weak results do not stand in their true shares. The source made the active and inactive calls.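 How the source made its calls: active means mean normalized replicate activation at least 10% and every replicate at or above 10%; inconclusive means only one of the two criteria met; inactive means mean below 10% and not all replicates reach 10%.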

Experiment: activators of inactive X chromosome reactivation, primary screen, imaging, XiGFP fibroblasts, GFP high-content imaging, set 2 (AID 743238);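 further: 0% = median of on-plate neutral control wells and 100% = ellipticine 6 µM median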
Details: XiGFP mouse fibroblasts, % GFP-positive cells imaging, 3 d; at 7.58 µM; stronger effect = higher value; cells co-treated with 5-aza-dC sensitizer; scaled so ellipticine positive control = 100%
Summary of the method: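 System: 68-5-11 XiGFP fibroblast line | Buffer or medium: DMEM containing 5-aza-dC | Compound: Single point | Times: Compounds 3 days, fix/stain 15 min at room temperature | Benchmarks: Positive control ellipticine, 6 µM final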

Row | SMILES | activation
1 | O=C(OC1CN2CCC1CC2)c1cccc2[nH]cnc12 (configuration not stated) | inactive: 0.017%
2 | CC(C)NC(=O)NP(=O)(Oc1ccccc1)Oc1ccccc1 | inactive: -0.0165%
3 | CC(C)c1ccc(OP(=O)(Nc2ccccn2)Oc2ccccc2F)cc1 (configuration not stated) | inactive: -0.135%
4 | COC(=O)C1(C)COP(=O)(N2CCCCCC2)OC1 (configuration not stated) | inactive: 0.522%
5 | Cc1ccc(OP(=O)(Nc2ccc([N+](=O)[O-])cn2)Oc2ccc(C)cc2)cc1 | inactive: -0.007%
6 | [N-]=[N+]=NC1CCCCC1NC(=O)c1cc([N+](=O)[O-])cc([N+](=O)[O-])c1 (configuration not stated) | inactive: 0.12%
7 | Cc1ccc2nc3c(c(C)c2c1)CC(C(Cl)Cl)S3 (configuration not stated) | inactive: 0.05%
8 | COc1cc(C(=O)NCC2(N3CCOCC3)CCCCC2)ccc1OCC(C)C | inactive: -0.0075%
9 | O=[N+]([O-])c1ccc(-c2cc([N+](=O)[O-])c(O)c([N+](=O)[O-])c2)cc1 | inactive: 0.0055%
10 | C[As](=O)(O)c1cccc(C(=O)O)c1 | inactive: -0.102%
11 | O=[As](O)(c1ccc(O)cc1)c1ccccc1O | inactive: 0.0645%
12 | O=[N+]([O-])c1cc(Oc2ccc([N+](=O)[O-])cc2C(F)(F)F)cc([N+](=O)[O-])c1 | inactive: -0.108%
13 | COc1ccc(N/C(=N/P(=O)(N2CCOCC2)N2CCOCC2)N2CCOCC2)cc1 | inactive: -0.0215%
14 | O=P1(N(CCCl)CCCl)OCCCN1CCCl (configuration not stated) | inactive: -0.091%
15 | O=P1(N(CCCl)CCCl)Nc2ccccc2N1 | inactive: 0.0335%
16 | COc1cc(I)ccc1[As](=O)(O)O | inactive: -0.118%
17 | COc1ccc2nc(NP(=O)(c3ccccc3)c3ccccc3)sc2c1 | inactive: 0.0065%
18 | Cc1c2c(nc3ccccc13)SC(C(Cl)Cl)C2 (configuration not stated) | inactive: 0%
19 | Cc1cc(=O)[nH]c(N[N+](=O)[O-])n1 | inactive: 0.293%
20 | O=C(OC1CN2CCC1CC2)c1cccc([N+](=O)[O-])c1 (configuration not stated) | inactive: 0.0925%
21 | CCOC(=O)c1ccc(NC(=O)C(C)(CCl)SC)cc1 (configuration not stated) | inactive: -0.072%

Row | SMILES | activation
22 | O=C(O)C(=O)c1ccc(N(CCCl)CCCl)cc1 | inactive: 0.064%
23 | O=C(Nc1ccncc1[N+](=O)[O-])c1ccc([N+](=O)[O-])cc1[N+](=O)[O-] | inactive: 0.136%
24 | COC(=O)C1(C)COP(=O)(N2CCCC2)OC1 (configuration not stated) | inactive: 0.0985%
25 | Cc1cc(SC(NC=O)C(Cl)(Cl)Cl)ncn1 (configuration not stated) | inactive: 0.117%
26 | O=P(Nc1ccccn1)(c1cccc2ccccc12)c1cccc2ccccc12 | inactive: 0.212%
27 | O=[N+]([O-])c1ccc(Nc2ccc(Oc3ccc([N+](=O)[O-])cc3[N+](=O)[O-])cc2)c([N+](=O)[O-])c1 | inactive: 0.211%
28 | CCOC(=O)Nc1cccc([As](=O)(O)O)c1 | inactive: -0.05%
29 | COP(=O)(OC)N1CC1c1ccccc1 (configuration not stated) | inactive: 0.254%
30 | Cc1cc(SC(NC(=O)c2ccccc2)C(Cl)(Cl)Cl)nc(C(C)C)n1 (configuration not stated) | inactive: 0.148%
31 | CCCCOc1ccc(C(=O)NCC2(N3CCCCC3)CCCCC2)cc1OC | inactive: -0.003%
32 | O=C(O)C(O)c1ccc(N(CCCl)CCCl)cc1 (configuration not stated) | inactive: -0.0235%
33 | CCOC(=O)Nc1ccc([As](=O)(O)O)c(O)c1 | inactive: 0.5%
34 | CC1CCNP(=O)(N(CCCl)CCCl)O1 (configuration not stated) | inactive: 0.0005%
35 | Nc1cccc([As](=O)(O)c2ccccc2)c1 | inactive: -0.0065%
36 | NS(=O)(=O)c1cccc(NC(=O)COC(=O)C(O)(c2ccccc2)c2ccccc2)c1 | inactive: -0.054%
37 | O=[As](O)(c1cccs1)c1cccs1 | inactive: -0.0145%
38 | Cc1ccc(S(=O)(=O)N(CCCN)CCCc2c(C)nc(N)[nH]c2=O)cc1 | inactive: 0.0125%
39 | CN(C)C1(CNC(=O)c2ccc(S(C)(=O)=O)cc2)CCCCC1 | inactive: 0.044%
40 | CCCC1OP(=O)(Nc2ccccc2)OCC1CC (configuration not stated) | inactive: 0.362%
41 | O=C(/C=C/c1ccccc1)OC1CN2CCC1CC2 (configuration not stated) | inactive: 0.135%
42 | Cc1ccc(C(=O)OC2CN3CCC2CC3)cc1 (configuration not stated) | inactive: 0.0385%

Row | SMILES | activation
43 | CC1CCC(C(C)C)C(OP(=O)(Nc2ccccn2)c2ccccc2)C1 (configuration not stated) | inactive: 0.13%
44 | CN(C(=O)Cc1ccc(Cl)c(Cl)c1)[C@@H]1CCCC[C@H]1N1CCCC1 | inactive: 0.0735%
45 | CC(C)/C=N\N=C(\N)N[N+](=O)[O-] | inactive: 0%
46 | COc1ccccc1CNC(=O)COC(=O)C(O)(c1ccccc1)c1ccccc1 | inactive: -0.0955%
47 | CC(C)(C)C(=O)NC(Sc1ncccn1)C(Cl)(Cl)Cl (configuration not stated) | inactive: -0.328%
48 | O=P1(N(CCCl)CCCl)NCCC(C(F)(F)F)O1 (configuration not stated) | inactive: 0.101%
49 | CCOP(=O)(NC(=NC(C)c1ccccc1)NC(C)c1ccccc1)OCC (configuration not stated) | inactive: -0.0385%
50 | CCC1=CC2Cc3nc4ccc(Cl)cc4c(N)c3C(C1)C2 (configuration not stated) | inactive: -0.0175%
51 | CN(CCCl)Cc1cc(Cl)c(NC2=NCCN2)c(Cl)c1 | inactive: 0.133%
52 | CCOP(=O)(Nc1ccc(C)cn1)OCC | inactive: 0.025%
53 | CCOP(=O)(Nc1cccc2ccccc12)OCC | inactive: 0.137%
54 | Nc1cccc2c([As](=O)(O)O)cccc12 | inactive: -0.0195%
55 | Cc1ccc(NCCc2c([N+](=O)[O-])cc([N+](=O)[O-])cc2[N+](=O)[O-])cc1 | inactive: -0.0035%
56 | CCCOP(=S)(Nc1nc(N)cc(=O)[nH]1)OCCC | inactive: -0.036%
57 | O=[As](O)(c1cccc(O)c1)c1cccc(O)c1 | inactive: 0.759%
58 | O=C(OC1CN2CCC1CC2)c1ccc(Cl)cc1 (configuration not stated) | inactive: 0.0295%
59 | CS(=O)(=O)c1ccc(Cl)c(NC(=O)COC(=O)C(O)(c2ccccc2)c2ccccc2)c1 | inactive: -0.0365%
60 | COc1cc(C(=O)NCC2(N3CCOCC3)CCCCC2)cc(Cl)c1OC(C)C | inactive: 0%
61 | CN(C(=O)Cc1ccccc1)[C@@H]1CC[C@]2(CCCO2)C[C@H]1N1CCCC1 | inactive: -0.133%
62 | N#CCCN(C(=O)COC(=O)C(O)(c1ccccc1)c1ccccc1)c1ccc(F)cc1 | inactive: -0.226%
